Patent publication US8884000B2 (priority 2010, dated 2014)

Target: Saponaria officinalis saporin-L1 (leaf RIP, N-terminal sequence […], SEQ ID NO:2) (Saponaria officinalis, UniProt Q2QEH4)

With `Nc1ncnc2c(CN3C[C@H](COP(=O)(O)OCCCO)[C@@H](OP(=O)(O)OCCCO)C3)c[nH]c12` [s3(9-DA)s3] the Ki (Values are Ki with no slow onset observed, A-10 RNA as substrate, pH 7.7) was 690 ± 100 nM and the “reduced binding affinity to saporin-L1 on removal of the 3′-Gs3 moiety” value (monomer s3(9-DA)s3 vs dimer s3(9-DA)Gs3) was 10 fold.
